From the OPERA property sets (Mansouri et al. 2018) come the findings set out here.

For the first data set the following is noted: experimental values, compiled.
One may read the melting point as the temperature, or range, at which the solid turns liquid. In turn, `CC(C)N1CCC(N(C(=O)Cc2ccccc2)c2ccc(Cl)cc2)CC1` displayed a melting point of 263 °C.

What is called boiling point is the temperature at which the vapour pressure of the liquid equals the pressure above it. With `O=C(F)F`, the boiling point was -84.5 °C, the log10 vapour pressure (mmHg) came out at 4.65 and the melting point was -111 °C.

`COP(OC)OC`: the boiling point was determined as 112 °C.

Take `CCC(=O)n1c(=O)n(C2CCN(CCC(C#N)(c3ccccc3)c3ccccc3)CC2)c2ccccc21`: the melting point was 147 °C.

`CCOP(=O)(Cl)OCC` came in with a boiling point of 93.5 °C.

Regarding `CCOP(O)OCC`, the boiling point turned out to be 138 °C and the log10 vapour pressure (mmHg) is 1.05.

Molecule `SCCCl` yielded a boiling point of 113 °C.

Turning to `O=C(Cl)OCCl`, the boiling point turned out to be 107 °C.

For the molecule `COC(=O)CF`, the boiling point was determined as 104 °C and the melting point was -35 °C.

With `CCOP(Cl)OCC`, the boiling point amounted to 153 °C.

`CC(C)NP(=O)(F)NC(C)C`: the melting point came to 65 °C.

Molecule `CCOP(OCC)OCC` returned a boiling point of 158 °C.

Still in this data set, the particulars now being: fish.
The molecule `CCOP(=S)(Oc1ccc([N+](=O)[O-])cc1)c1ccccc1` (configuration not stated) came in with a log10 biotransformation half-life (days) of 0.02.
